In patent publication US5961978A, “Therapeutically useful peptides and peptide fragments” (Norsk Hydro, a.s., priority 1991, dated 1999):

Test system: PBMC
Test: In vitro stimulation of PBMC from healthy donors with p21 ras peptide mixtures (3H-thymidine incorporation)
Type: cell-based, human
Settings: PBMC 100000 cells per well; IL2 1 U/ml where added
Experimental: Mononuclear cells from peripheral blood (PBMC) were isolated from defibrinated blood by centrifugation on Lymphoprep (Nycomed, Oslo, Norway). Washed PBMC were resuspended in RPMI 1640 (Gibco, Paisley, Scotland) supplemented with 100 IU/ml penicillin, streptomycin (100 μg/ml) and 15% autologous serum, and the indicated amounts of synthetic peptides and incubated in a 5% CO2 incubator at 37° C. All of the peptides representing mutations in position 12 and 13 contain an additional alanine or valine in the C-terminus.
Cultures were incubated for 2 days at 37° C. in a 5% CO2 incubator, and pulsed overnight with 1 μCi of ^3 H-thymidine (Amersham, England) per well before harvesting onto glass fibre filters by an automated cell harvester (Scatron, Lierbyen, Norway). Thymidine incorporation into DNA was quantitated by liquid scintillation counting using an LKB 1205 Betaplate Liquid Scintillation counter. Data are given as medians of triplicate cultures. Controls included T cell clones cultured alone, or with APC in the absence of peptides. The panels are scaled according to the magnitude of the positive response.
Peripheral blood mononuclear cells from healthy donors were stimulated in vitro with mixtures of synthetic p21 ras peptides according to the present invention as described in FIG. 1.
No primary response against the peptide mixtures could be observed. […]

IL2: recombinant human IL-2, 1 U/ml final dilution
PRIMARY RESPONSE: 14060,7 CPM
RESPONSE AFTER THE THIRD STIMULATION WITH PEPTIDE-MIXTURE III: 29768,4 CPM
